Target: T1, human 5-HT4 receptor (Homo sapiens, UniProt Q13639)
T1 construct: expressed in transfected cells; host or cells: cardiomyocytes of transgenic mice (alpha-myosin heavy chain promoter); isolated left and right atria and Langendorff-perfused hearts
Assay: Isolated electrically stimulated (1 Hz) left atrial preparations from 5-HT4-TG mice, organ bath contractility
Design: species or system human (expressed in cardiomyocytes of transgenic mice)
Conditions: left atrium of 5-HT4-TG; 5-HT 1 µM, bufotenin 3 µM, tryptamine 100 µM
Source text: A mouse with cardiomyocyte-specific expression of the human 5-HT4(a) receptor has been generated in our laboratory (Gergs et al. [2010]). The cardiac myocyte-specific expression was achieved by the use of the α-myosin heavy chain promoter. The age of the animals studied in the atrial contraction experiments was around 4 months. Both genders were studied. All mice were housed under conditions of optimum light, temperature, and humidity with food and water provided ad libitum. The investigation conformed to the Guide for the Care and Use of Laboratory Animals as published by the National Research Council (2011). The animals were handled and maintained according to the approved protocols of the Animal Welfare Committee of the University of Halle-Wittenberg, Halle, Germany.
In brief, the right or left atrial preparations from the mice were isolated and mounted in organ baths as previously described (Gergs et al. [2013]; Neumann et al. [2003]). […] The solution was continuously gassed with 95% O2 and 5% CO2 and maintained at 37 °C and pH 7.4 (Kirchhefer et al. [2004]; Neumann et al. [1998], [2003]). Spontaneously beating right atrial preparations from mice were used to study any chronotropic effects.
The drug application was as follows.

Protein sequences, listed by entry. Tags and fused reporters are not part of them. Residues count along the entry.
UniProt Q13639, 1-387 isoform Q13639-2: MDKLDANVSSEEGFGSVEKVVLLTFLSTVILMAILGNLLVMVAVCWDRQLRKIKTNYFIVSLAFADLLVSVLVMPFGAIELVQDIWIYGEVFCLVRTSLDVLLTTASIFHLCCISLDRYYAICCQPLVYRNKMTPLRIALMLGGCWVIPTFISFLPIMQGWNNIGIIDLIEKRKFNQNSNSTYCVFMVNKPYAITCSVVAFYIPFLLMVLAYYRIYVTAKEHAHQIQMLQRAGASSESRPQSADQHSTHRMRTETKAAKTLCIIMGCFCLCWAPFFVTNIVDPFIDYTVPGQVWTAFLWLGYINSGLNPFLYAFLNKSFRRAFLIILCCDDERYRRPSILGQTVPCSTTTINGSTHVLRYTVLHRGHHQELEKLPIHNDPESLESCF

SMILES: CN(C)CCc1c[nH]c2ccc(O)cc12 [Bufotenin, 5-hydroxy-N,N-dimethyl-tryptamine]
- TR: 26.08 ± 1.23 ms

— publication PMC10244282, “Cardiovascular effects of bufotenin on human 5-HT4 serotonin receptors in cardiac preparations of transgenic mice and in human atrial preparations” (Naunyn-Schmiedeberg's Archives of Pharmacology, 2023)
